Measurements: US20260108513A1, “Combination of Talazoparib and Enzalutamide in the Treatment of Metastatic Castration-Resistant Prostate Cancer” (Pfizer Inc., priority 2022, published 2026)

Tested on: mCRPC patients
Settings: male, human, in vivo
From the text: This population was the primary population for evaluating safety.

anemia leading to dose reduction of talazoparib (with or without transfusion): 43.2%
SMILES: Cn1ncnc1[C@H]1c2n[nH]c(=O)c3cc(F)cc(c23)N[C@@H]1c1ccc(F)cc1 [talazoparib, (8S,9R)-5-fluoro-8-(4-fluorophenyl)-9-(1-methyl-1H-1,2,4-triazol-5-yl)-8,9-dihydro-2H-pyrido[4,3,2-de]phthalazin-3(7H)-one]
